Earlier results as cited in PMC11954708 (Clinical Pharmacokinetics, 2025).

Conditions: fed/fasted in vivo

CCOC(=O)C1=C(C)NC(C)=C(C(=O)OC)C1c1cccc(Cl)c1Cl (stereo not shown) [Felodipine]
AUC ratio Observed: 1.53
